Our source for the IC50 and Ki values is ChEMBL document CHEMBL5042489, “Inhibitors of the Hippo Pathway Kinases STK3/MST2 and STK4/MST1 Have Utility for the Treatment of Acute Myeloid Leukemia” (J Med Chem, 2022).

pIC50, pKi: −log10 of the molar value.

Test [1] deals with T1, Serine/threonine-protein kinase 4 (Homo sapiens, UniProt Q13043).
T1 sequence (Q13043 whole entry): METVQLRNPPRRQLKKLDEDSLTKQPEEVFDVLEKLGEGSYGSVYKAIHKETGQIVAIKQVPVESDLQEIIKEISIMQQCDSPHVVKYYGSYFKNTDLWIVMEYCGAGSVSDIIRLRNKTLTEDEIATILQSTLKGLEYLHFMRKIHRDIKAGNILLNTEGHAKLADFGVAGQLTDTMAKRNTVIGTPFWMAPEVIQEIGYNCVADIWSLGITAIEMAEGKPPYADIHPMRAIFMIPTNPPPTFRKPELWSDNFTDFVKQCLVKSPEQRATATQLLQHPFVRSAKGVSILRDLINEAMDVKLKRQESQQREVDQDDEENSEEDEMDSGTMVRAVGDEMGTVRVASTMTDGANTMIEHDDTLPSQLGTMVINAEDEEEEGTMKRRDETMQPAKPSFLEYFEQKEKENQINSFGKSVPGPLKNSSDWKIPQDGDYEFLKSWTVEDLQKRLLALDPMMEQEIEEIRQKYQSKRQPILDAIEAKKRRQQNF

In test [2] the target is T1, Serine/threonine-protein kinase 4. This is another data set of the same source.
For test [3] the target is unchanged. The source holds these as a separate data set.

Regarding `COc1cccc(-c2c[nH]c3ncnc(N4CCOCC4)c23)c1`, in test [1], the negative logarithm of the IC50 (pIC50) (usually −log10 of the IC50, conventionally taken in molar units) is 6.08. On to `NC(=O)c1cccc(-c2c[nH]c3ncnc(N4CCOCC4)c23)c1`, for which the pKi (as a rule, −log10 of the Ki, conventionally taken in molar units) in test [2] is 7.02. In addition, the negative-log IC50 (pIC50) in test [1] was 7.30; in test [3] it was 6.59. The molecule `Fc1ccc(-c2c[nH]c3ncnc(N4CCOCC4)c23)cc1` showed a pIC50 in test [1] of 6.08. With `Fc1cccc(-c2c[nH]c3ncnc(N4CCOCC4)c23)c1`, the pIC50 in test [1] was 7.23; in test [3], 6.28. Regarding `Fc1ccccc1-c1c[nH]c2ncnc(N3CCOCC3)c12`, the pIC50 in test [1] was 6.65. On to `Cc1cccc(-c2c[nH]c3ncnc(N4CCOCC4)c23)c1`, for which the pIC50 was 7.46 in test [1] and 6.57 in test [3].

Turning to `COc1ccccc1-c1c[nH]c2ncnc(N3CCOCC3)c12`, the pIC50 in test [1] is 6.87. The same measure, in the same setting: the figure for `CCN(CCO)c1ncnc2[nH]cc(-c3cccc(Cl)c3)c12` is 6.77. On the same count and under the same terms, to `Clc1cccc(-c2c[nH]c3ncnc(NCC4CC4)c23)c1` belongs 6.85; to `c1csc(-c2c[nH]c3ncnc(N4CCOCC4)c23)c1`, 7.04.

With `Clc1cccc(-c2c[nH]c3ncnc(N4CCCCC4)c23)c1`, the pIC50 in test [1] was 7.32; in test [3], 6.26. Take `c1nc(N2CCOCC2)c2c(-c3ccoc3)c[nH]c2n1`: the pIC50 in test [1] was 6.56. On the same count and under the same terms, to `Cc1ccc(-c2c[nH]c3ncnc(N4CCOCC4)c23)cc1` belongs 6.07; to `CN(C)c1ncnc2[nH]cc(-c3cccc(Cl)c3)c12`, 7.09.

`CC1(O)CCN(c2ncnc3[nH]cc(-c4cccc(Cl)c4)c23)CC1` had a pIC50 in test [1] of 6.84.

`CC1(N)CCN(c2ncnc3[nH]cc(-c4cccc(Cl)c4)c23)CC1` showed a pIC50 in test [1] of 6.79. The same measure, in the same setting: to `c1coc(-c2c[nH]c3ncnc(N4CCOCC4)c23)c1` belongs 6.85. For the molecule `OCCCNc1ncnc2[nH]cc(-c3cccc(Cl)c3)c12`, the pIC50 is 7.03 in test [1] and 6.26 in test [3].
